Consider one substance from patent publication US20150010917A1, “METHOD TO IDENTIFY LIGANDS FOR SIGMA-1 RECEPTORS” (LABORATORIOS DEL DR. ESTEVE S.A., priority 2012, published 2015).

The assay has as its target T1, σ1^spCFP/YFP construct expressed in HEK-293 cells (Homo sapiens, UniProt Q99720).
T1 construct: PTHR (PTH1R) signal peptide (N); expressed in transfected cells; host or cells: HEK-293 (stably transfected, G418 selected)
In words: Single-cell real-time intramolecular FRET (iFRET) of the σ1 receptor FRET sensor. Type of assay: cell-based. As to conditions: 100 μM, single HEK-293 cell, FIG. 3. As for the experimental part:
In the single cell real time intramolecular-FRET approach both donor (i.e. CFP) and acceptor (i.e. YFP) are located in the same molecule, as designed for the σ1^CFP/YFP and the σ1^spCFP/YFP constructs (FIG. 1A). In brief, HEK cells permanently expressing the corresponding σ1 receptor FRET sensor were seeded in poly-D-Lysine coated coverslips and allow growing overnight. Then, the coverslips with transfected cells were mounted in an Attofluor holder and placed on an inverted Axio Observer microscope (Zeiss, Jena, Germany) equipped with a 63× oil immersion objective and a dual-emission photometry system (Till Photonics, Gräfelfing, Germany). The extracellular buffer was Hank's Balanced Salt Solution (HBSS), containing (in mM): 137 NaCl, 0.34 Na2HPO4, […], 0.44 KH2PO4, 0.5 MgCl2, 0.4 Mg2SO4, 1.26 CaCl2, 10 HEPES, 2 D-glucose and 1 ascorbic acid (pH 7.4 with NaOH).
A Polychrome V (Till Photonics) was used as the light source. The sample was illuminated with excitation light at 436±10 nm (beam splitter dichroic long-pass; DCLP 460 nm). Excitation time was 10 ms at 10 Hz, in order to limit photobleaching. Emission light intensities were determined at 535±15 and 480±20 nm (DCLP 505 nm). No corrections for spillover between channels or direct YFP excitation were made.
Single cells were selected for recording based on their σ1 expression as judged by its fluorescence. […]

Consider (+)-SKF-10,047, for which the “change in the FRET signal of the σ1^spCFP/YFP” value is “decrease”.
